This note sets out measurements from patent US12383566B2, “Inhibition of SLC transporter activity or expression to attenuate anthracycline-induced cardiotoxicity” (Northwestern University, priority 2021, dated 2025).

The test system of the assay is Mouse model of doxorubicin-induced cardiomyopathy. The experiment in a line: Mouse model of doxorubicin-induced cardiomyopathy, echocardiographic evaluation. In kind it is in vivo, C57BL/6J mice. To be noted: Base line; Mean. The text has this:
Procedures followed were in accordance with Stanford University's institutional guidelines. […] For the control group, we treated mice with corn oil in the same schedule as desipramine administration. We recorded an echocardiogram once a week (day 0, day 7, day 14, and day 21) and terminated the experiment at day 21.
For the control group, we treated mice with corn oil in the same schedule as desipramine administration. We recorded an echocardiogram once a week (day 0, day 7, day 14, and day 21) and terminated the experiment at day 21.
Echocardiographic evaluation. Mice were studied at baseline and weekly during the protocol under light anesthesia with isoflurane (induction 3%, maintenance 1.5%). 2D images in the parasternal short axis were obtained with a GE Vivid 7 ultrasound system (GE Healthcare) equipped with a 13 MHz transducer. Left ventricular end-systolic (LVESD) and end-diastolic (LVEDD) dimensions were measured and left ventricular fractional shortening (FS) was calculated.

SMILES strings stand for the structures.

On to `COc1cccc2c1C(=O)c1c(O)c3c(c(O)c1C2=O)C[C@@](O)(C(=O)CO)C[C@@H]3O[C@H]1C[C@H](N)[C@H](O)[C@H](C)O1` [DOX, doxorubicin], for which the “IVSs (LV interventricular septum thickness at systole)” value is given as 1.04 mm.
